According to patent publication US4131681A, “Antiallergic method” (Fujisawa Pharmaceutical Co., Ltd., priority 1977, dated 1978):

Assay: Acute toxicity in rat
Settings: in vivo, po, male, 7 days
Description: (6) Acute toxicity in mouse and rat
Each ten male and female ICR-JCL strain mice and Sprague-Dawley-JCL strain rats were used for each dose.
Each test compound was given to animals in a form of suspension in 0.5% methyl cellose intraperitoneally, subcutaneously and orally. After administration, the incidence of the death was recorded for successive seven days. LD50 values were calculated by the method of Litchfield-Wilcoxon method.

## O=C(Cn1c(=O)sc2ccc(Cl)cc21)N1CCN(CCO)CC1 [Compound D, 3-[4-(2-hydroxyethyl)-1-piperazinylcarbonylmethyl]-5-chloro-2-benzothiazolinone hydrochloride]
  LD50 at 168 h: 3600 mg/kg

Counter-ions that a name gives are not always drawn.
